The assay concerns the target Platelet-derived growth factor receptor beta (Homo sapiens, UniProt P09619). Nature of the assay: Inhibition of PDGFRbeta in human SF539 cells by phosphotyrosine cell-based ELISA. Also noted: species or system SF-539. On the technique in general: An ELISA detects its analyte on a solid surface through an enzyme-linked reagent.

Chains of the proteins cited; added tags and fusions are not shown.
UniProt P09619, whole entry: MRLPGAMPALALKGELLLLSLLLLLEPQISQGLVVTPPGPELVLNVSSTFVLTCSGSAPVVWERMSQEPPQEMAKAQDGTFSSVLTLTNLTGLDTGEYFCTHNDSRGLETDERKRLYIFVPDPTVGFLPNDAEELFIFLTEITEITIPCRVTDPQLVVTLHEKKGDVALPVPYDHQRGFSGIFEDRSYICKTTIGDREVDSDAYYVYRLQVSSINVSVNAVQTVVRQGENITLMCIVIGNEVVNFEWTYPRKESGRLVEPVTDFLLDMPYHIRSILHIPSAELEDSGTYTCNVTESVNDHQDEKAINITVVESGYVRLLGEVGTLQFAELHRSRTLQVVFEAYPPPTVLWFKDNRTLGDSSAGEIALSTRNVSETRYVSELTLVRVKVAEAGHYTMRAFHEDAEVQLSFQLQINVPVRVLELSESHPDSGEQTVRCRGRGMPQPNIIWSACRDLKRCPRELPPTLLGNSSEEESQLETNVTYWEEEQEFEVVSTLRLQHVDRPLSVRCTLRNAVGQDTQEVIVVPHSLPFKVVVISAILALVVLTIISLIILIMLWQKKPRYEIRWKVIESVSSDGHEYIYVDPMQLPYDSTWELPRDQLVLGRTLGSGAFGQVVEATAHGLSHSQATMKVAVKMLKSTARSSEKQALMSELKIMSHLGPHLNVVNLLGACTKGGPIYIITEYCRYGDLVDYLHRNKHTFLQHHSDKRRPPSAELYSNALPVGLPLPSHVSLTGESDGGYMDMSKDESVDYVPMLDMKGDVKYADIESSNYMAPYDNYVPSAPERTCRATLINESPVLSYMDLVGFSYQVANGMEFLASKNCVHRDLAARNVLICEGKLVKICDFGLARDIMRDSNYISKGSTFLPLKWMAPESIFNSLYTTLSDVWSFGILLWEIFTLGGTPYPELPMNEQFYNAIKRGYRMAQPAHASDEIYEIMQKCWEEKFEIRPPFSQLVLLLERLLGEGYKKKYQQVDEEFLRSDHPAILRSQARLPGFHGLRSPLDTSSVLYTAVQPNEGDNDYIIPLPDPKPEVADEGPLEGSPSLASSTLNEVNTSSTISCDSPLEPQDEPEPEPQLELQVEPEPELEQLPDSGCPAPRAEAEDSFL

One may read the IC50 as the concentration needed to halve the response being measured. Low readings indicate inhibition by little substance, high ones a need for much substance. For `CN(C)c1ccc(/C=C2\C(=O)Nc3ccccc32)cc1`, 3.75 µM corresponded to half-maximal inhibition (IC50).
